# Only a part is listed here, and it is no random draw. Active and inactive are the calls of the source. Cut-off read from the data, not from the text of the source: active = inhibition above about 50%; inconclusive = no clear call, values can overlap the other calls; inactive = below that.
# Assay: PubChem AID 1554
# Settings: BJeLR (HRASV12) viability, CellTiter-Glo ATP luminescence, 48 h; active compounds read high; concentration not given here
row,Structure (SMILES),inhibition
1,O=P(Nc1nccs1)(c1ccccc1)c1ccccc1,inactive: -4.54%
2,CC(C)C(=O)NC(Sc1ccccc1)C(Cl)(Cl)Cl (configuration not stated),inactive: 3.46%
3,Nc1ccc([As](=O)(O)c2ccc([N+](=O)[O-])cc2)cc1,inactive: -3.11%
4,C(Cc1nn[nH]n1)Cc1nn[nH]n1,inactive: -4.64%
5,O=C(OC1CN2CCC1CC2)c1cccc(Cl)c1 (configuration not stated),inactive: -2.68%
6,O=[N+]([O-])c1ncn(CCn2cnc([N+](=O)[O-])n2)n1,inactive: 11.5%
7,CC(=O)NC(SC(=S)N(C)C)C(Cl)(Cl)Cl (configuration not stated),inactive: -11.2%
8,O=[N+]([O-])c1ccc(OP2(=O)COCCO2)cc1 (configuration not stated),inactive: -1.4%
9,O=[N+]([O-])c1ccc(O)c(/C=N/Nc2ccc([N+](=O)[O-])cc2[N+](=O)[O-])c1,inactive: 18.6%
10,O=[N+]([O-])c1cc([N+](=O)[O-])c(NCC2CCS(=O)(=O)C2)c([N+](=O)[O-])c1 (configuration not stated),inactive: 2.79%
11,Cc1cc(-c2cccc3ccccc23)c(C)cn1.O=[N+]([O-])c1cc([N+](=O)[O-])c(O)c([N+](=O)[O-])c1,inactive: 1.42%
12,O=[As](O)(c1ccccc1)c1ccc(O)cc1,inactive: 7.48%
13,C[C@H]1OP(=O)(Oc2ccccc2)[C@H](O)[C@H](O)[C@H]1N=[N+]=[N-] (some centres not stated),inactive: -0.0799%
14,O=P(Nc1nc2ccccc2s1)(c1ccccc1)c1ccccc1,inactive: -2.42%
15,CN(C)CCOC(=O)C(O)(c1ccccc1)C1CCCCC1 (configuration not stated),inactive: 3.53%
16,COc1ccc(NP(C)(=O)Oc2ccccc2OC)cc1 (configuration not stated),inactive: 10.7%
17,COc1ccc(OP(C)(=O)Nc2cccc(Br)c2)cc1 (configuration not stated),inactive: 0.585%
18,CN(C)C1(CNC(=O)c2ccc(Cl)c(S(N)(=O)=O)c2)CCCCC1,inactive: 0.731%
19,O=P(Nc1ccccn1)(c1ccc(Br)cc1)c1ccc(Br)cc1,inactive: 4.19%
20,O=[As](O)(c1cccs1)c1cccs1,inactive: -3.22%
21,Cc1ccc(OCC(=O)OC2CN3CCC2CC3)cc1 (configuration not stated),inactive: 5.8%
22,CP(=O)(Nc1ccc(SC(F)(F)F)cc1)Oc1ccccc1 (configuration not stated),inactive: -10.3%
23,Nc1cccc([As](=O)(O)c2ccccc2)c1,inactive: 3.05%
24,CCCOc1ccc(NP(C)(=O)Oc2ccc(Cl)cc2)cc1 (configuration not stated),inactive: -0.979%
25,O=P1(Nc2ncccn2)COc2ccccc2OC1,inactive: -2.71%
26,CN1CCCCC1COC(=O)C1(O)c2ccccc2CCc2ccccc21 (configuration not stated),inactive: 5.75%
27,COc1ccccc1OP(C)(=O)Nc1c(C)cccc1C (configuration not stated),inactive: 1.02%

# — PubChem BioAssay AID1554 (Broad Institute, 2009)
